OPERA 2.9 data: water solubility values

Data: OPERA 2.9 data sets, kmansouri/OPERA on GitHub.

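OPERA's authors assembled the values from existing databases and did not measure them anew. One number stands for a compound and property, with no spread given. How each value was measured is not recorded, so precision varies. A value may pool stereoisomers or salt forms, and the file does not say which form was measured. Some entries may be limits or estimates that an upstream database listed as plain numbers.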

Water solubility is log10 of mol/L, nominally at 25 °C; higher is more soluble.

CC1(C)S[C@@H]2[C@H](NC(=O)COc3ccccc3)C(=O)N2[C@H]1C(=O)O has log S -2.716 (log10 mol/L).
CCN(CC)c1ccc2nc3ccc(N(CC)CC)cc3[o+]c2c1.O=[N+]([O-])[O-] has log S -2.45 (log10 mol/L).
CCS(=O)(=O)CCBr has log S -0.439 (log10 mol/L).
N#CCC(=O)Nc1ccc(Cl)cc1 has log S -3.289 (log10 mol/L).
Cc1ccc(Cl)cc1Cl has log S -4.056 (log10 mol/L).
O=C1C(CCS(=O)c2ccccc2)C(=O)N(c2ccccc2)N1c1ccccc1 (stereo unspecified) has log S -3.098 (log10 mol/L).
CC(C)C(O)(CCC(C)(O)C(=O)O)C(=O)O (stereo unspecified) has log S -1.37 (log10 mol/L).
O=c1[nH]c(=O)c2[nH]cnc2[nH]1 has log S -3.33 (log10 mol/L).
Clc1cc(Cl)c(Oc2c(Cl)cccc2Cl)cc1Cl has log S -7.12 (log10 mol/L).
CCCCC1NC(=O)NC1=O (stereo unspecified) has log S -1.495 (log10 mol/L).
Cn1cncc1C[C@H](N)C(=O)O has log S 0.072 (log10 mol/L).
CCC(C)=C(CC(=O)O)C(=O)O has log S -2.301 (log10 mol/L).
O=C([O-])c1ccccc1N=Nc1c(O)ccc2ccccc12.O=C([O-])c1ccccc1N=Nc1c(O)ccc2ccccc12.[Ba+2] has log S -6.459 (log10 mol/L).
Clc1cccc(Oc2ccccc2)c1Cl has log S -4.67 (log10 mol/L).
CC(=O)Nc1cccc(C(C)=O)c1 has log S -1.623 (log10 mol/L).
Cn1c(=O)[nH]c(=O)c2[nH]c(=O)n(C)c21 has log S -2.568 (log10 mol/L).
Cc1c(NC(=O)NCc2cccc(CNC(=O)Nc3cccc(NC(=O)OCCCCCCCCCCC(C)C)c3C)c2)cccc1NC(=O)OCCCCCCCCCCC(C)C has log S -5.973 (log10 mol/L).
CCN1CCC[C@H]1CNC(=O)c1c(OC)ccc(Br)c1OC has log S -3.466 (log10 mol/L).
CCCC(=O)CC(=O)C(=O)O has log S -0.619 (log10 mol/L).
C[C@H](O)[C@H](O)c1c[nH]c2nc(N)nc(=O)c-2n1 has log S -2.519 (log10 mol/L).
CCC(O)c1ccccc1 (stereo unspecified) has log S -2.34 (log10 mol/L).
CCCCCCCCCCCC(=O)N(C)CC(=O)O has log S -2.735 (log10 mol/L).
CCCCCCCC/C=C\CCCCCCCCCCCCC has log S -8.465 (log10 mol/L).
Clc1cc(Cl)c(Oc2ccc(Cl)c(Cl)c2)c(Cl)c1 has log S -7.62 (log10 mol/L).
CCCCCCCCCCCCOC(=O)c1cccnc1 has log S -3.29 (log10 mol/L).
NS(=O)(=O)c1ccccc1-c1nc2ccccc2c(=O)[nH]1 has log S -3.079 (log10 mol/L).
O=C(O)c1c(Cl)ccc(Cl)c1O has log S -0.372 (log10 mol/L).
CCCCC(=O)CC(=O)C(=O)O has log S -0.957 (log10 mol/L).
CCC1(C)C(=O)NC(=O)N1CN1C(=O)NC(=O)C1(C)CC (stereo unspecified) has log S -2.518 (log10 mol/L).
CC(CC(=O)[O-])CC(C)(C)C.CC(CC(=O)[O-])CC(C)(C)C.[Ca+2] (stereo unspecified) has log S -2.413 (log10 mol/L).
COc1ccccc1O has log S -1.155 (log10 mol/L).
COC(=O)c1sccc1N has log S -1.895 (log10 mol/L).
Clc1cc(Cl)c(Cl)c(Oc2ccc(Cl)c(Cl)c2Cl)c1 has log S -8.55 (log10 mol/L).
CC(=O)Nc1cccc(C(F)(F)F)c1 has log S -2.87 (log10 mol/L).
CC(=O)c1cccc(NC(N)=O)c1 has log S -1.874 (log10 mol/L).
COCCN(CCOC)C(=O)COC(=O)c1ccccc1 has log S -1.072 (log10 mol/L).
Nc1nc(/C(=N/OC(c2ccccc2)(c2ccccc2)c2ccccc2)C(=O)N[C@H]2C(=O)N3C(C(=O)OC(c4ccccc4)c4ccccc4)=C(C=O)CS[C@@H]23)ns1 has log S -7.606 (log10 mol/L).
CSc1nc2cc(Cl)c(Oc3cccc(Cl)c3Cl)cc2[nH]1 has log S -5.561 (log10 mol/L).
CC(C)(C)c1ccc(OC(=O)c2cc(C(C)(C)C)c(O)c(C(C)(C)C)c2)c(C(C)(C)C)c1 has log S -7.341 (log10 mol/L).
CCCCC(CC)(C(=O)O)C(=O)O has log S -0.798 (log10 mol/L).
CCN(CCO)c1ccc(/N=N/c2ccc([N+](=O)[O-])cc2Cl)cc1 has log S -7.46 (log10 mol/L).
CCCCCCCCCCCCCCCCCCCCCC[N+](C)(C)C.COS(=O)(=O)[O-] has log S -4.836 (log10 mol/L).
CN(C)C(=O)Nc1ccc(SC(F)(F)Cl)c(Cl)c1 has log S -0.635 (log10 mol/L).
O=C([O-])CNCCNCC(=O)[O-].[Cl-].[Cl-].[Pt+4] has log S -2.949 (log10 mol/L).
CCCC1CCCNC1 (stereo unspecified) has log S -1.008 (log10 mol/L).
Cc1cc(N(CCO)CCO)ccc1N=Nc1c(Cl)cc([N+](=O)[O-])cc1Cl has log S -5.959 (log10 mol/L).
Cc1cccc(C)c1OCC(=O)N[C@@H](Cc1ccccc1)[C@@H](O)C[C@H](Cc1ccccc1)NC(=O)[C@H](C(C)C)N1CCCNC1=O has log S -5.515 (log10 mol/L).
O=C1c2ccccc2-c2ccc3c4c([N+](=O)[O-])cc5c6c(ccc(c7ccc1c2c73)c64)C(=O)c1ccccc1-5 has log S -4.399 (log10 mol/L).
Cc1cccc(Nc2ccncc2S(=O)(=O)NC(=O)NC(C)C)c1 has log S -3.767 (log10 mol/L).
Cn1c(=O)[nH]c(=O)c2[nH]c(=O)[nH]c21 has log S -3.53 (log10 mol/L).
NC(C(=O)O)[C@H](N)C(=O)O (some centres undefined) has log S -2.38 (log10 mol/L).
Cc1c(Cc2cc(C(C)(C)C)c(O)c(C(C)(C)C)c2)c(C)c(Cc2cc(C(C)(C)C)c(O)c(C(C)(C)C)c2)c(C)c1Cc1cc(C(C)(C)C)c(O)c(C(C)(C)C)c1 has log S -5.81 (log10 mol/L).

The 4 lowest values of log S among the entries above:

{"smiles": "Clc1cc(Cl)c(Cl)c(Oc2ccc(Cl)c(Cl)c2Cl)c1", "log S (log10 mol/L)": "-8.55"}
{"smiles": "CCCCCCCC/C=C\\CCCCCCCCCCCCC", "log S (log10 mol/L)": "-8.465"}
{"smiles": "Clc1cc(Cl)c(Oc2ccc(Cl)c(Cl)c2)c(Cl)c1", "log S (log10 mol/L)": "-7.62"}
{"smiles": "Nc1nc(/C(=N/OC(c2ccccc2)(c2ccccc2)c2ccccc2)C(=O)N[C@H]2C(=O)N3C(C(=O)OC(c4ccccc4)c4ccccc4)=C(C=O)CS[C@@H]23)ns1", "log S (log10 mol/L)": "-7.606"}